Read-outs that look alike come from different tables or passages of the source.
How the values were obtained:
[1] = test system: marginal vein of each ear; experiment: Histopathological evaluation of injection sites (Example 11); type: in vivo, New Zealand White rabbits
[2] = entire range of dilution (4-3200 fold), after 1 minute and 24 hours
[3] = water at 20° C. as reference
[4] = test system: marginal vein of each ear; experiment: Acute venous irritation of unsalified NSAIDs versus ethylenediamine and piperazine salts, Draize erythema and edema scores (Example 11); settings: Wilcoxon Signed-Ranks test

## ketoprofen-piperazine
[1]; at the end of needle progression and 1 cm away from the end of progression
  incidence of inflammatory cell infiltrates: low
[1]; injection site histopathology
  mean intensity (severity) of edema and infiltrates: none to negligible
[2]
  static dilution test (precipitation or turbidity): passed
[3]; 12.7 mg/mL solution
  viscosity: 1.12 Cp
[3]; 50 mg/mL solution
  viscosity: 1.25 cP
12.7 mg/mL solution
  ionic strength: 0.225
50 mg/mL solution
  ionic strength: 0.5
[4]; 1-hour post-infusion
  edema score compared with the respective unsalified NSAID: significantly lower
  erythema score compared with the respective unsalified NSAID: significantly lower
[4]; 24-hour post-infusion
  edema score compared with the respective unsalified NSAID: significantly lower
  erythema score compared with the respective unsalified NSAID: significantly lower

— US20110098284A1, “Methods and compositions for treating pain” (priority 2005, published 2011)
